Source: PubChem (Broad Institute)
UUG fidelity = yeast start codon fidelity modulation; AID 602363; activity score, % at 18.7 µM; S. cerevisiae UUG-firefly luciferase reporter, luminescence/redox ratio; 0.13% of 350,000 active;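 active means replicate mean at a twofold rise or more, about +100% in these data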;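 further: firefly luciferase made from a UUG start codon reports start codon fidelity; reporter light over untreated wells divided by growth signal over untreated wells; some hits fall short of that in this replicate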
S100A4 MyoIIA = inhibitors of S100A4-myosin IIA peptide binding, primary screen, biochemical, fluorescence polarization, TAMRA-MyoIIA peptide | inhibition, % at 10.7 µM | 360,000 compounds, 0.14% hits;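 active means mean inhibition of at least 70% across replicates, with every replicate also reaching that level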
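Test system – S100A4 monomer (human) · Compound – single-point compound testing · Schedule – 5 min incubation before reading · Probe or stimulus – TAMRA-labelled myosin IIA heavy-chain peptide probe, 5 nM · Benchmarks – neutral control DMSO, positive control TFP · Medium – Calcium-containing HEPES buffer, pH 7.2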
SIRT5 inh = SIRT5 desuccinylase inhibitors, primary screen, biochemical, fluorescence imaging, single point, set 5. NAD-dependent protein deacylase sirtuin-5, mitochondrial (Homo sapiens), Q9NXA8. Purified SirT5, succinyl-peptide AMC, trypsin-coupled fluorescence. inhibition, % at 15 µM. 330,000 compounds, 1.1% hits; in the data active means inhibition above about 15%
ERp5 inh = inhibitors of ERp5-driven insulin aggregation, primary screen, biochemical, turbidity, absorbance 650 nm, single point. inhibition, % at 9.99 µM. 350,000 compounds, 0.05% hits. Protein disulfide-isomerase A6 (Homo sapiens), Q15084. 90 min. AID 651711, 2012;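 active means mean replicate inhibition above about 25%, with every replicate also reaching it, limit read from the data, passing the limit was not always enough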
FGF22 binding-1 = binders of human FGF22 protein, primary screen, FGF22 synaptogenesis inhibitor project, biophysical, thermal shift, single point; Fibroblast growth factor 22 (Homo sapiens), Q9HCT0; recombinant FGF22 thermal shift, SYPRO orange fluorescence; percent of sucrose octasulfate shift, DMSO zero; activity (Tm shift, normalised), % at 9.99 µM; 340,000 compounds, 1.5% hits;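 active means mean Tm shift, scaled 0 neutral to 100 positive control, at about 1.3% or above, every replicate too, limit read from the data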
PDI turbidity = inhibitors of human PDI, primary screen, biochemical, turbidity, single point, plate reader; AID 588391, 2011; PDI insulin aggregation turbidity, A650, 90 min; inhibition, % at 10 µM; 350,000 compounds, 0.052% hits; Protein disulfide-isomerase (Homo sapiens), P07237;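 active means mean inhibition across replicates of 30% or more, whatever share of single replicates reach that level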
FGF22 binding-2 = binders of human FGF22 protein, dose response, FGF22 synaptogenesis inhibitor project, biophysical, thermal shift, cherry-pick retest; shares compounds with FGF22 binding-1; recombinant FGF22 thermal shift, SYPRO orange fluorescence; thermal shift activity, °C (ΔTm) at 38 µM; 1,000 compounds, 2% hits; AID 720646, 2013;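 active means fitted rise in melting shift crosses a set limit at or below the top valid dose tested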
SYPRO no-protein = compound-only thermal shift signal without protein, dose response, artefact control for FGF22 binder project, biochemical, cherry-picked samples, RT-PCR instrument | 1,000 compounds, 2% hits | AC50, µM (doses to about 38 µM) | shares compounds with FGF22 binding-1 | compound-only SYPRO orange thermal shift counter-screen, no protein;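 active means rising signal whose fitted curve reaches the 0.54 level within the top valid dose, showing a melting point, actives reach about 13 µM in these data; inactive means the rest, including activity in the opposite direction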; further: value is where the raw curve crosses a fixed level and not half-maximal
Of the large screens only hits and unclear results are named; the others gave an inactive call (follow-up assays come after a bar, where they were run). A selection: hits, their analogues and other compounds. The true share with any hit is near 2.2%.

N/C(=N\OCC(=O)Nc1ccc(F)c(Cl)c1)c1ccccc1	FGF22 binding-1 1.6 | FGF22 binding-2 inactive | SYPRO no-protein inactive
CN(C)C(=O)c1ccc(-c2ccc([C@H]3[C@@H](C#N)N(C(=O)Cc4ccccn4)[C@H]3CO)cc2)cc1	none (no result: PDI turbidity)
O=c1c(O)c(-c2cc(O)c(O)c(O)c2)oc2cc(O)cc(O)c12	FGF22 binding-1 1.5 | FGF22 binding-2 inactive | SYPRO no-protein inactive
Cn1c(=O)c2c(-c3ccccc3)n(-c3cc([N+](=O)[O-])ccc3O)cc2n(C)c1=O	FGF22 binding-1 1.4 (no result: UUG fidelity) | FGF22 binding-2 inactive | SYPRO no-protein inactive
Cc1cccc(-c2c3c(=O)n(C)c(=O)n(C)c3cn2-c2ccccc2O)c1	none (no result: UUG fidelity, S100A4 MyoIIA, SIRT5 inh, ERp5 inh, FGF22 binding-1)
Cn1c(=O)c2c(-c3ccccc3)n(-c3cc(Cl)c([N+](=O)[O-])cc3O)cc2n(C)c1=O	FGF22 binding-1 1.6 (no result: PDI turbidity) | SYPRO no-protein inactive
O=C(C[C@@H]1CC[C@H]2[C@@H](COC[C@@H](O)CN2C(=O)Nc2ccc3c(c2)OCO3)O1)N1CCN(c2ccccc2)CC1	none (no result: UUG fidelity, PDI turbidity)
O=C(C[C@@H]1C=C[C@H](NC(=O)CC2CC2)[C@@H](CO)O1)NCc1ccccc1	none (no result: UUG fidelity, FGF22 binding-1, PDI turbidity)
CCCN1C[C@H](C)[C@H](OC)CN(C)C(=O)c2cc(NC(=O)c3cnccn3)ccc2OC[C@@H]1C	FGF22 binding-1 1.4 (no result: UUG fidelity, PDI turbidity) | FGF22 binding-2 inactive | SYPRO no-protein inactive
CO[C@H]1CN(C)C(=O)c2cc(NC(=O)CC(F)(F)F)ccc2OC[C@@H](C)N(C(C)=O)C[C@H]1C	FGF22 binding-1 23 (no result: UUG fidelity, PDI turbidity) | FGF22 binding-2 inactive | SYPRO no-protein inactive
COCC(=O)Nc1ccc2c(c1)OC[C@@H](C)N(C)C[C@H](C)[C@@H](OC)CN(C)C2=O	FGF22 binding-1 31 (no result: PDI turbidity) | FGF22 binding-2 inactive | SYPRO no-protein inactive
CO[C@@H]1CN(C)C(=O)c2cc(NC(=O)c3cccc(F)c3)ccc2OC[C@@H](C)NC[C@@H]1C	none (no result: PDI turbidity)
CO[C@H]1CN(C)C(=O)c2cc(NC(=O)c3cccc(F)c3)ccc2OC[C@H](C)NC[C@@H]1C	FGF22 binding-1 2.0 (no result: PDI turbidity) | FGF22 binding-2 inactive | SYPRO no-protein inactive
CN1C(=O)c2cc(NS(=O)(=O)c3ccc(Cl)cc3)ccc2OC[C@@H]2O[C@H](CC(=O)N3CCc4ccccc4C3)CC[C@H]21	none (no result: FGF22 binding-1, PDI turbidity)
CCCC#Cc1cnc2c(c1)C(=O)N([C@@H](C)CO)C[C@@H](C)[C@H](CN(C)C(=O)c1cccnc1)O2	none (no result: FGF22 binding-1, PDI turbidity)
CCCNC(=O)Nc1ccc2c(c1)C(=O)N(C)C[C@H](OC)[C@@H](C)CN(C(=O)c1ccccc1F)[C@H](C)CO2	FGF22 binding-1 1.7 (no result: UUG fidelity, PDI turbidity) | FGF22 binding-2 inactive | SYPRO no-protein inactive
CO[C@@H]1CN(C)C(=O)c2cc(NC(=O)C3CCCC3)ccc2OC[C@H](C)N(CCC(F)(F)F)C[C@H]1C	FGF22 binding-1 9.3 (no result: PDI turbidity) | FGF22 binding-2 inactive | SYPRO no-protein inactive
CO[C@H]1CN(C)C(=O)c2ccc(NS(=O)(=O)c3ccc(Cl)cc3)cc2OC[C@@H](C)N(C(=O)NC(C)C)C[C@H]1C	FGF22 binding-1 36 (no result: PDI turbidity) | FGF22 binding-2 inactive | SYPRO no-protein inactive
CCCNC(=O)Nc1ccc2c(c1)C(=O)N(C)C[C@@H](OC)[C@H](C)CN(C(=O)c1ccccc1F)[C@H](C)CO2	none (no result: UUG fidelity, PDI turbidity)
O=C(NNC(=O)c1ccccc1O)c1ccc(NS(=O)(=O)c2ccc(F)c(F)c2)cc1	FGF22 binding-1 1.8 (no result: UUG fidelity) | FGF22 binding-2 inactive | SYPRO no-protein inactive
Cc1ccc(NS(=O)(=O)c2ccc(C(=O)NNC(=O)c3ccccc3O)cc2)cc1	none (no result: UUG fidelity)
